The text below walks through data of ChEMBL document CHEMBL1255205, “Validated predictive QSAR modeling of N-aryl-oxazolidinone-5-carboxamides for anti-HIV protease activity” (Bioorg Med Chem Lett, 2010).

This assay addresses Protease (Human immunodeficiency virus 1, UniProt Q9YQ12). Nature of the assay: Inhibition of HIV1 protease.

On to `CC(=O)NC(C(=O)N[C@@H](Cc1ccccc1)CC(O)[C@H](Cc1ccccc1)NC(=O)[C@@H]1CN(c2ccccc2)C(=O)O1)C(C)C` (stereo partly specified), for which the Ki stood at 131 nM.

As usually defined, the Ki is a dissociation constant, usually derived from enzyme kinetics or from competition with a known ligand.
